# scFv variants of Ab-14 (light chain) against a SARS-CoV-2 spike peptide

From the AlphaSeq antibody data of Engelhart et al. 2022 (doi:10.1038/s41597-022-01779-4), copy in the FLAb collection.

Binding partner: SARS-CoV-2 spike HR2 peptide, sequence PDVDLGDISGINAS.

The variants keep the heavy chain, the linker and the frameworks of Ab-14 (scFv order VH, a (GGGGS)3 linker, VL).
VH: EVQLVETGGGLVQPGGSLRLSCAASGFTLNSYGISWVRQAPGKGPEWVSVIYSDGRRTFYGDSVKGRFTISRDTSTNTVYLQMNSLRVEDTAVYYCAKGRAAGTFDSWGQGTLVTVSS
VL: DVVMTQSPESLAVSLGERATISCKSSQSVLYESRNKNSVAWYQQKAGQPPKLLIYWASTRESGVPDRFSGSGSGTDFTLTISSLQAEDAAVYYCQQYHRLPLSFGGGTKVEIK

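The starting antibody came from a phage panning campaign against this peptide. AAYL50 was designed without a model: most single CDR substitutions and a random sample of double and triple ones. The scFvs were displayed on barcoded MATa yeast, the peptide on MATalpha yeast. The frequency of each diploid, read from paired DNA barcodes, reflects how well the two displayed proteins bind. The ratio of observed to expected reads was calibrated, replicate by replicate, on BCL2-family standards whose Kd was known from biolayer interferometry. Each pool was mated in three replicate cultures.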

Variants are written as CDR1, CDR2 and CDR3 of the light chain (limits as in the source). Parent: KSSQSVLYESRNKNSVA, WASTRES, QQYHRLPLS. All variants listed here change A57 of the VL, counted from its first residue. The Kd shown is the geometric mean over detected replicates; a lower Kd is a better binder. An entry "nd" has no value in the source: the pair was not observed among the diploids in any replicate. This suggests poor binding but is not conclusive. The list is sorted by this average, lowest first, undetected variants last. Nonspecific signal, from three strains lacking the peptide, appeared in 18% of pairings of library AAYL50, centred on 15 µM (5% of these signals below 970 nM); values are not corrected for it. For reference, the parent read 4.4 nM as the reference entry and 48 nM as a member of this library.

Variant KSSQSVLYESRNKNSVA / DVSTHES / QQYHRLPLS showed 1.9 nM (3 of 3 replicates). Variant KSSQSVLYSSRNSNSVA / WGSTRES / QQYHRLPLS gave 4.1 nM (3 of 3 replicates). Variant KISQSVLYESRNKNSVA / WISTRIS / QQYHRLPLS gave 4.5 nM (3 of 3 replicates). For KSSQSVLYKSRNKNSVA / WDSTRES / QQYHRCPLS, the assay gave 14 nM (3 of 3 replicates). With KSSQSVLYESRNKNSVA / WMSTRES / QQYKRLPLK the result was 33 nM (3 of 3 replicates). Variant KSSQSVLYESRNKNSVA / WTSTREC / QQYHRLPLS gave 44 nM (3 of 3 replicates).

With KSSQSILYESRNKNSVA / WESTRES / RQYHRLPLS the result was 120 nM (3 of 3 replicates). With KSSQLVLYESRNKNSVA / WMSTRES / QQYLRLPLS the result was 160 nM (3 of 3 replicates). Variant KSSQSVLRESRNKNSVA / WDSTRES / QQYQRLPLS gave 180 nM (3 of 3 replicates). For KSSQSVLYESRNVNSVA / WKSTRES / QQYHRLPLS, the assay gave 970 nM (3 of 3 replicates). With WSSQSVLYESRNKHSVA / WQSTRES / QQYHRLPLS the result was 1.4 µM (1 of 3 replicates). For KSSQSVLYESRNKNSVA / WESTRES / QQYHRLFLS, the assay gave 4.9 µM (1 of 3 replicates).

Variant KSSQSVLYESHNKNSVA / WTSTRKS / QQYHRLPLS showed 5.5 µM (2 of 3 replicates). For KSSGSGLYESRNKNSVA / WDSTRES / QQYHRLPLS, the assay gave 8.6 µM (3 of 3 replicates). With KSSPSVLYESRNKNSVA / WISTRKS / QQYHRLPLS the result was 15 µM (3 of 3 replicates). Variant RSSQSVLYESRNKNSVA / WWSTRES / QFYHRLPLS showed 16 µM (2 of 3 replicates). For KSSQSVLYESTNKNGVA / WISTRES / QQYHRLPLS, the assay gave 16 µM (1 of 3 replicates). For KSSQSVLYESRNKNSVA / WESTRES / CQYHRDPLS, the assay gave 16 µM (1 of 3 replicates).

Variant KSSQSVLYESRNRNSVA / WPVTRES / QQYHRLPLS gave 26 µM (1 of 3 replicates). With KSSQSHLYESRNKNSVA / WTPTRES / QQYHRLPLS the result was 33 µM (2 of 3 replicates). With ESSQSVLYESRNKNSVA / WPSTCES / QQYHRLPLS the result was 49 µM (1 of 3 replicates). With KSSQSVLYESRNKNSVA / WIRTRYS / QQYHRLPLS the result was 59 µM (2 of 3 replicates). With KSSQSVLGESRNKNSVA / WVSTRES / QQYHRLPLN the result was 72 µM (2 of 3 replicates). For KSRQSVLYESRNKNSVA / WPSTRES / QHYHRLPLS, the assay gave 190 µM (3 of 3 replicates).

Variant KSSQSVLYESRNKNSVA / WVSTRES / QQEHRLPLS showed nd (0 of 3 replicates). For KSSQSVLYESRHKNSVA / WPSTRES / QQYHRLPLG, the assay gave nd (0 of 3 replicates). For KSSQSVLRESRNKNSVF / WESTRES / QQYHRLPLS, the assay gave nd (0 of 3 replicates). For KSSQGVLYESRNKNSVA / WVSTRES / QQYKRLPLS, the assay gave nd (0 of 3 replicates). For KSSQSVLYESRNKNSVA / WPSTCES / QQYHRCPLS, the assay gave nd (0 of 3 replicates). Variant KSSQSVCYESRNKNSVA / WWSTRES / QQYHRLPLR showed nd (0 of 3 replicates).

For KSSQSVLYESRNKLSVA / WNSTRES / QNYHRLPLS, the assay gave nd (0 of 3 replicates). Variant KSSQLVLYESRNKNSVA / WMSTREW / QQYHRLPLS gave nd (0 of 3 replicates). Variant YSSQSVLYESRNKNSVQ / WWSTRES / QQYHRLPLS showed nd (0 of 3 replicates). For KSSQSVLFESRNKNSVA / WYSTRES / QQPHRLPLS, the assay gave nd (0 of 3 replicates). Variant KSSQSVLYESRQKNSVA / WQSTRAS / QQYHRLPLS showed nd (0 of 3 replicates). Variant KSSQSVLYESRNKNSVA / WKSTRPS / LQYHRLPLS showed nd (0 of 3 replicates).

Extract of 4 entries:

CDR-L1,CDR-L2,CDR-L3,Kd,replicates with signal
KSSQSVLYESTNKNGVA,WISTRES,QQYHRLPLS,16 µM,1 of 3
KISQSVLYESRNKNSVA,WISTRIS,QQYHRLPLS,4.5 nM,3 of 3
KSSQSVLYESRNKNSVA,WESTRES,CQYHRDPLS,16 µM,1 of 3
KSSQSVLYESRNRNSVA,WPVTRES,QQYHRLPLS,26 µM,1 of 3